Drawing on patent publication US8476043B2 (dated 2013), this text covers IC50 for 1 compound.

By UniProt entry, the sequences of proteins in these tests, tags left out.
UniProt P34913, whole entry: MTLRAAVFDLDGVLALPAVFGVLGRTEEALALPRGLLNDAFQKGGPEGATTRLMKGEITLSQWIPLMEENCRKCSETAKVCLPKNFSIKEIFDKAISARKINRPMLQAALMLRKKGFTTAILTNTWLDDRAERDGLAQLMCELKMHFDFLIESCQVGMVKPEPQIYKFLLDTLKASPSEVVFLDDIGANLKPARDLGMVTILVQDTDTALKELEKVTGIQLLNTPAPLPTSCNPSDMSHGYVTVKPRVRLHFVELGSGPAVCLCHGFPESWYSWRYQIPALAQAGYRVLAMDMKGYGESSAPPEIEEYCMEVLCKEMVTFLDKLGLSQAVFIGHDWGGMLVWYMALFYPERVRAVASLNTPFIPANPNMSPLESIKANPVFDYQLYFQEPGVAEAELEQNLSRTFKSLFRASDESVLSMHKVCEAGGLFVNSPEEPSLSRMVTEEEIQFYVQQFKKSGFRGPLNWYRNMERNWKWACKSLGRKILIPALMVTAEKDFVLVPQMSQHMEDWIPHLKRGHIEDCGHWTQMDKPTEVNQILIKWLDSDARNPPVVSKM

Each structure is given as a SMILES string.

The test concerns the target human sEH (Homo sapiens, UniProt P34913). As to the kind of experiment: sEH inhibition, fluorescent assay with cyano(6-methoxy-naphthalen-2-yl)methyl trans-[(3-phenyloxiran-2-yl)methyl]carbonate as substrate. Type of test: biochemical. The following applies: read-out: Human sEH IC50; Table 5; fluorescent-based assay, 0.96 nM human sEH, pH 7.0, [S] = 5 μM.

For the compound `CC(C)NC(=O)CCCCCCCCCCCNC(=O)NC12CC3CC(CC(C3)C1)C2` [Compound 793, 1-(1-Adamantyl)-3-(11-isopropylaminocarbonylundecyl)urea], the IC50 was 2.9 nM.

The IC50 is the concentration at which inhibition is half-maximal.
